Series [1] is described as follows: Stability of compounds of Formulae (1) and (2) in plasma. Particulars: pH 7.4. Format: in vitro ADME.
The nature of series [2]: Stability of compounds of Formulae (1) and (2) in buffer. Format: physicochemical.
Another series has as its target CathepsinB (Homo sapiens, UniProt P07858). The series is described as follows: Digestion of the drug-linkers by CathepsinB. Particulars: 125 nM enzyme, 62.5 μM drug-linker, pH 5.5, 37° C., 3 hours.
The next series concerns HCT15-hPDL1 cells. Format: cell-based, human. Particulars: 5 days exposure; read-out: HCT15-hPDL1 cell IC50. How it is done: The cell line was named as HCT15-hPDL1.
The in vitro anti-tumor activity was determined by CellTiter-Glo® Luminescent Cell Viability Assay (Promega) according to the manufacturer's instructions. […] Untreated cells served as control. ADCs, antibodies, or payloads in 100 μL medium were added in duplicate at various concentrations with a 2-fold dilution series starting with concentrations of 1 uM, respectively. Cells were exposed to test articles for 5 days. Absorbance was measured at 450 nm by a microplate reader. The cell survival rate (%) was calculated using the following formula: sample/control×100%.

[3] abbreviates: alkaline conditions 10 minutes, then acidic conditions (pH 9→5).

The IC50 is the concentration needed to halve the response being measured.

As to “Glycine3-amido-PEG8-VC-PAB-DMAE-α-hydroxy lactone linked SN38 [Compound of Formula (2)]”, the “Stability in plasma” value in series [1] is “mainly in the form of lactones in the plasma, and ring-opening products were basically invisible”. In addition, in series [2] (buffer, less affected by pH), the “existing in the form of lactones in buffer” value was found to be 98%.

On to “Glycine3-amido-PEG8-VC-PAB-DMAE-phenol linked SN38 [Compound of Formula (1)]”, for which, in series [1], the “Stability in plasma” value is “partially hydrolyzed in plasma, mainly in the form of lactone opening”. In addition, the “CathepsinB digestion” value on CathepsinB was “effectively digested”. Besides, the IC50 in the series on HCT15-hPDL1 cells was greater than 0.3 µM. Further, the “in the form of lactones” value in series [2] (acidic conditions (buffer pH 5)) stood at 88%. Moreover, in series [2] (setting [3]), the “in the form of lactones” value was 98% and the lactone-opening products is on record as 0.21%. Further, the “lactones in the form of ring opening” value in series [2] (alkaline conditions (buffer pH 9)) is recorded as 92%.

Values taken from US20240299576A1, “TARGETING CONJUGATES COMPRISING EFFECTOR MOLECULES AND USES THEREOF” (priority 2021, published 2024).
